The chains behind the UniProt entries cited, without tags or fusion partners.
UniProt Q16236, whole entry: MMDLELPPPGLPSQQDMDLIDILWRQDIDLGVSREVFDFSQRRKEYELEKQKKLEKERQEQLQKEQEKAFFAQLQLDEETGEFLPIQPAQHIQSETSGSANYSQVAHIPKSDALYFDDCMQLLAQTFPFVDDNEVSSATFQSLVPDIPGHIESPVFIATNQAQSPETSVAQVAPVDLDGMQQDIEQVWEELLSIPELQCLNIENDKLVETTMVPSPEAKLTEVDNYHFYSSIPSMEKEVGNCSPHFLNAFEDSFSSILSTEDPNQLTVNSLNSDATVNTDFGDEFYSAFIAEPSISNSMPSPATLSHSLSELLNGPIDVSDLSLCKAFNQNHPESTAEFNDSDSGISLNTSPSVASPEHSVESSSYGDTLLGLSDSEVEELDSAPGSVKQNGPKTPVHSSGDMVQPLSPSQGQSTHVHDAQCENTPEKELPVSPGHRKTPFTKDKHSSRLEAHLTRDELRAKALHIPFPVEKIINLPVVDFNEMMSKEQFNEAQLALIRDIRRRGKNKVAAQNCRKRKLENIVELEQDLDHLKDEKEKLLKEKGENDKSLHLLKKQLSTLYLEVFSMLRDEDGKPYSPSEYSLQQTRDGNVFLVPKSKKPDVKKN

According to patent publication US20260055097A9, “NRF2 PROTEIN DEGRADERS” (Ganymede Oncology, Inc., priority 2022, published 2026):

How the values were obtained:
A549 = assay: Cancer cell viability, A549 (CellTiter-Glo); settings: read-out: Cellular IC50 (μM) A549, A549 cells, 3 days
LK-2 = assay: Cancer cell viability, LK-2 (CellTiter-Glo); settings: read-out: Cellular IC50 (μM) LK-2, LK-2 cells, 3 days
Nrf2 = Nrf2 (Homo sapiens, UniProt Q16236); assay: Nrf2 degradation in A549 HiBiT-Nrf2 cells, Nano-Glo HiBiT lytic detection (HiBiT readout)
[1] = read-out: DC50 (nM) at 6 h, 6 h
[2] = read-out: DC50 (nM) at 20 h, 20 h

IC50 (A549) [µM]	IC50 (LK-2) [µM]	DC50 (Nrf2; [1]) [nM]	DC50 (Nrf2; [2]) [nM]	SMILES
0.7	0.3	< 300	< 300	Cc1sc(NC(=O)Cc2cccc(OCCCCCNc3ccc4c(c3)C(=O)N(C3CCC(=O)NC3=O)C4=O)c2)nc1-c1ccc2c(c1)CCN2C(=O)C1CC1 (stereo not drawn)
		300 to 3000	300 to 3000	Cc1sc(NC(=O)Cc2cccc(OCCCCCOc3cccc4c3C(=O)N(C3CCC(=O)NC3=O)C4=O)c2)nc1-c1ccc2c(c1)CCN2C(=O)C1CC1 (stereo not drawn)
> 30		> 3000	300 to 3000	Cc1sc(NC(=O)Cc2cccc(OCCCCCCCNc3cccc4c3C(=O)N(C3CCC(=O)NC3=O)C4=O)c2)nc1-c1ccc2c(c1)CCN2C(=O)C1CC1 (stereo not drawn)
0.15		< 300	< 300	Cc1sc(C(=O)NCc2cccc(OCCCCCNc3cccc4c3C(=O)N(C3CCC(=O)NC3=O)C4=O)c2)nc1-c1ccc2c(c1)CCN2C(=O)C1CC1 (stereo not drawn)

Where two headings read alike, the source gives them in different places.
